Measurements: patent US20260382772A1, “KETO-AMIDE-BASED FIBROBLAST ACTIVATION PROTEIN-TARGETED LIGAND LINKED TO AN IMAGING OR THERAPEUTIC AGENT, COMPOSITIONS, AND METHODS OF USE” (published 2026)

Tested on: 4T1 tumor-bearing mice
Assay: Biodistribution of ^111In-FAP8-PEG3-IP-DOTA in 4T1 tumor-bearing mice
Text: Balb/c mice were inoculated on their shoulders with 1×10^5 cells of 4T1 cells, whereas nu/nu mice were inoculated on their shoulders with 5×10^6 cells of HT29 (a human colorectal adenocarcinoma cell line), KB (tumor cell line HeLa), MDA-MB-231 (a human breast cancer cell line), or HEK-FAP cells.
For the first study, two different tumor-bearing mice (4T1 and HEK-hFAP) were intravenously injected with [^111In] In-FAP8-PEG3-IP-DOTA (In-Conjugate 24′) (0.74 MBq/mouse, 1-10 nmol/mouse) or [^177Lu] Lu-FAP8-PEG3-IP-DOTA (Lu-Conjugate 24′) (7.4 MBq/mouse, 0.3 nmol-5 nmol/mouse).
At indicated time points (1 hour, 4 hours, 24 hours, 72 hours, 120 hours, and 168 hours post-injection), mice were assessed and/or euthanized by CO2 asphyxiation and organs of interest were harvested, excess blood was rinsed, dried, weighed, and then analyzed by gamma counter, and the results were decay corrected and presented as the percentage of the injected dose per gram of tissue (% ID/g)±standard deviation (SD).
Dose escalation analyses of [^111In] In-FAP8-PEG3-IP-DOTA (In-Conjugate 24′) in 4T1 tumor-bearing mice was performed (n=3) with 1.0 nmol/mouse. 2.5 nmol/mouse, 5.0 nmol/mouse, or 10.0 nmol/mouse doses of Conjugate 24′ provided with constant radioactivity (0.74 MBq/mouse) and measured at three different times (4 hours, 24 hours, and 120 hours post-injection).

SMILES: COc1ccc(CNC(=O)C(=O)[C@@H]2CC(F)(F)CN2C(=O)CNC(=O)c2ccnc3ccc(OCC(=O)NCCOCCOCCOCCNC(=O)[C@H](CCCCNC(=O)CCCc4ccc(I)cc4)NC(=O)CN4CCN(CC(=O)O)CCN(CC(=O)O)CCN(CC(=O)O)CC4)cc23)cc1OC.[In+3]
- Blood uptake (1 nmol/mouse, 4 h): 26.37 ± 5.78 % ID/g
- Bone marrow uptake (1 nmol/mouse, 4 h): 2 ± 1.18 % ID/g
- Heart uptake (1 nmol/mouse, 4 h): 1.51 ± 0.38 % ID/g
- Intestine uptake (1 nmol/mouse, 4 h): 1.86 ± 1.30 % ID/g
- Kidneys uptake (1 nmol/mouse, 4 h): 4.42 ± 0.44 % ID/g
- Liver uptake (1 nmol/mouse, 4 h): 3.86 ± 0.405 % ID/g
- Lungs uptake (1 nmol/mouse, 4 h): 3.50 ± 0.69 % ID/g
- Spleen uptake (1 nmol/mouse, 4 h): 0.96 ± 0.02 % ID/g
- Stomach uptake (1 nmol/mouse, 4 h): 1.49 ± 0.251 % ID/g
- Tumor uptake (1 nmol/mouse, 4 h): 8.51 ± 2.63 % ID/g
- Tumor/Blood (1 nmol/mouse, 4 h): 0.67 ± 0.37
- Tumor/Bone marrow (1 nmol/mouse, 4 h): 4.96 ± 1.62
- Tumor/Kidneys (1 nmol/mouse, 4 h): 2.62 ± 0.57
- Blood uptake (1 nmol/mouse, 24 h): 8.39 ± 3.60 % ID/g
- Bone marrow uptake (1 nmol/mouse, 24 h): 0.48 ± 0.38 % ID/g
- Heart uptake (1 nmol/mouse, 24 h): 2.78 ± 1.49 % ID/g
- Intestine uptake (1 nmol/mouse, 24 h): 1.54 ± 1.22 % ID/g
- Kidneys uptake (1 nmol/mouse, 24 h): 3.53 ± 1.61 % ID/g
- Liver uptake (1 nmol/mouse, 24 h): 2.60 ± 0.49 % ID/g
- Lungs uptake (1 nmol/mouse, 24 h): 2.18 ± 0.83 % ID/g
- Spleen uptake (1 nmol/mouse, 24 h): 1.97 ± 1.18 % ID/g
- Stomach uptake (1 nmol/mouse, 24 h): 0.88 ± 0.511 % ID/g
- Tumor uptake (1 nmol/mouse, 24 h): 11.14 ± 1.63 % ID/g
- Tumor/Blood (1 nmol/mouse, 24 h): 1.24 ± 0.90
- Tumor/Bone marrow (1 nmol/mouse, 24 h): 30.91 ± 33.28
- Tumor/Kidneys (1 nmol/mouse, 24 h): 3.34 ± 1.12
- Blood uptake (1 nmol/mouse, 120 h): 1.18 ± 0.17 % ID/g
- Bone marrow uptake (1 nmol/mouse, 120 h): 0.53 ± 0.54 % ID/g
- Heart uptake (1 nmol/mouse, 120 h): 0.64 ± 0.12 % ID/g
- Intestine uptake (1 nmol/mouse, 120 h): 1.72 ± 2.09 % ID/g
- Kidneys uptake (1 nmol/mouse, 120 h): 1.47 ± 0.63 % ID/g
- Liver uptake (1 nmol/mouse, 120 h): 3.94 ± 0.29 % ID/g
- Lungs uptake (1 nmol/mouse, 120 h): 0.63 ± 0.118 % ID/g
- Spleen uptake (1 nmol/mouse, 120 h): 1.32 ± 0.19 % ID/g
- Stomach uptake (1 nmol/mouse, 120 h): 0.57 ± 0.18 % ID/g
- Tumor uptake (1 nmol/mouse, 120 h): 14.9 ± 4.38 % ID/g
- Tumor/Blood (1 nmol/mouse, 120 h): 12.47 ± 1.50
- Tumor/Bone marrow (1 nmol/mouse, 120 h): 43.72 ± 18.90
- Tumor/Kidneys (1 nmol/mouse, 120 h): 11.67 ± 5.05
- Blood uptake (2.5 nmol/mouse, 4 h): 40.25 ± 6.03 % ID/g
- Bone marrow uptake (2.5 nmol/mouse, 4 h): 2.01 ± 1.41 % ID/g
- Heart uptake (2.5 nmol/mouse, 4 h): 3.55 ± 0.75 % ID/g
- Intestine uptake (2.5 nmol/mouse, 4 h): 3.13 ± 1.25 % ID/g
- Kidneys uptake (2.5 nmol/mouse, 4 h): 10.07 ± 4.88 % ID/g
- Liver uptake (2.5 nmol/mouse, 4 h): 5.43 ± 0.702 % ID/g
- Lungs uptake (2.5 nmol/mouse, 4 h): 11.42 ± 4.95 % ID/g
- Spleen uptake (2.5 nmol/mouse, 4 h): 1.70 ± 1.06 % ID/g
- Stomach uptake (2.5 nmol/mouse, 4 h): 1.40 ± 0.359 % ID/g
- Tumor uptake (2.5 nmol/mouse, 4 h): 11.38 ± 3.80 % ID/g
- Tumor/Blood (2.5 nmol/mouse, 4 h): 0.89 ± 0.85
- Tumor/Bone marrow (2.5 nmol/mouse, 4 h): 4.16 ± 2.52
- Tumor/Kidneys (2.5 nmol/mouse, 4 h): 1.17 ± 0.19
- Blood uptake (2.5 nmol/mouse, 24 h): 7.19 ± 5.02 % ID/g
- Bone marrow uptake (2.5 nmol/mouse, 24 h): 1.68 ± 1.036 % ID/g
- Heart uptake (2.5 nmol/mouse, 24 h): 2.35 ± 1.84 % ID/g
- Intestine uptake (2.5 nmol/mouse, 24 h): 1.57 ± 0.72 % ID/g
- Kidneys uptake (2.5 nmol/mouse, 24 h): 8.90 ± 3.91 % ID/g
- Liver uptake (2.5 nmol/mouse, 24 h): 3.83 ± 1.41 % ID/g
- Lungs uptake (2.5 nmol/mouse, 24 h): 1.98 ± 0.809 % ID/g
- Spleen uptake (2.5 nmol/mouse, 24 h): 2.19 ± 0.80 % ID/g
- Stomach uptake (2.5 nmol/mouse, 24 h): 0.88 ± 0.22 % ID/g
- Tumor uptake (2.5 nmol/mouse, 24 h): 9.92 ± 4.51 % ID/g
- Tumor/Blood (2.5 nmol/mouse, 24 h): 1.61 ± 0.50
- Tumor/Bone marrow (2.5 nmol/mouse, 24 h): 10.23 ± 8.23
- Tumor/Kidneys (2.5 nmol/mouse, 24 h): 1.17 ± 0.19
- Blood uptake (2.5 nmol/mouse, 120 h): 0.75 ± 0.34 % ID/g
- Bone marrow uptake (2.5 nmol/mouse, 120 h): 0.75 ± 0.49 % ID/g
- Heart uptake (2.5 nmol/mouse, 120 h): 0.77 ± 0.42 % ID/g
- Intestine uptake (2.5 nmol/mouse, 120 h): 0.96 ± 0.78 % ID/g
- Kidneys uptake (2.5 nmol/mouse, 120 h): 3.67 ± 2.65 % ID/g
- Liver uptake (2.5 nmol/mouse, 120 h): 2.48 ± 1.37 % ID/g
- Lungs uptake (2.5 nmol/mouse, 120 h): 0.68 ± 0.14 % ID/g
- Spleen uptake (2.5 nmol/mouse, 120 h): 1.42 ± 0.78 % ID/g
- Stomach uptake (2.5 nmol/mouse, 120 h): 0.51 ± 0.32 % ID/g
- Tumor uptake (2.5 nmol/mouse, 120 h): 8.16 ± 3.52 % ID/g
- Tumor/Blood (2.5 nmol/mouse, 120 h): 6.64 ± 3.24
- Tumor/Bone marrow (2.5 nmol/mouse, 120 h): 7.57 ± 4.45
- Tumor/Kidneys (2.5 nmol/mouse, 120 h): 1.37 ± 0.45
- Blood uptake (5.0 nmol/mouse, 4 h): 21.36 ± 4.88 % ID/g
- Bone marrow uptake (5.0 nmol/mouse, 4 h): 1.93 ± 2.18 % ID/g
- Heart uptake (5.0 nmol/mouse, 4 h): 1.50 ± 0.38 % ID/g
- Intestine uptake (5.0 nmol/mouse, 4 h): 2.12 ± 1.15 % ID/g
- Kidneys uptake (5.0 nmol/mouse, 4 h): 9.17 ± 2.30 % ID/g
- Liver uptake (5.0 nmol/mouse, 4 h): 7.34 ± 2.16 % ID/g
- Lungs uptake (5.0 nmol/mouse, 4 h): 5.93 ± 0.86 % ID/g
- Spleen uptake (5.0 nmol/mouse, 4 h): 1.3 ± 0.27 % ID/g
- Stomach uptake (5.0 nmol/mouse, 4 h): 1.56 ± 0.30 % ID/g
- Tumor uptake (5.0 nmol/mouse, 4 h): 10.66 ± 3.68 % ID/g
- Tumor/Blood (5.0 nmol/mouse, 4 h): 0.55 ± 0.20
- Tumor/Bone marrow (5.0 nmol/mouse, 4 h): 15.60 ± 19.52
- Tumor/Kidneys (5.0 nmol/mouse, 4 h): 1.09 ± 0.18
- Blood uptake (5.0 nmol/mouse, 24 h): 10.42 ± 1.46 % ID/g
- Bone marrow uptake (5.0 nmol/mouse, 24 h): 1.8 ± 1.067 % ID/g
- Heart uptake (5.0 nmol/mouse, 24 h): 0.73 ± 0.101 % ID/g
- Intestine uptake (5.0 nmol/mouse, 24 h): 1.3 ± 0.65 % ID/g
- Kidneys uptake (5.0 nmol/mouse, 24 h): 7.50 ± 1.68 % ID/g
- Liver uptake (5.0 nmol/mouse, 24 h): 3.85 ± 0.74 % ID/g
- Lungs uptake (5.0 nmol/mouse, 24 h): 2.14 ± 0.29 % ID/g
- Spleen uptake (5.0 nmol/mouse, 24 h): 3.57 ± 0.10 % ID/g
- Stomach uptake (5.0 nmol/mouse, 24 h): 0.8 ± 0.23 % ID/g
- Tumor uptake (5.0 nmol/mouse, 24 h): 10.17 ± 0.605 % ID/g
- Tumor/Blood (5.0 nmol/mouse, 24 h): 0.98 ± 0.07
- Tumor/Bone marrow (5.0 nmol/mouse, 24 h): 7.69 ± 4.38
- Tumor/Kidneys (5.0 nmol/mouse, 24 h): 1.41 ± 0.28
- Blood uptake (5.0 nmol/mouse, 120 h): 0.98 ± 1.01 % ID/g
- Bone marrow uptake (5.0 nmol/mouse, 120 h): 0.87 ± 0.79 % ID/g
- Heart uptake (5.0 nmol/mouse, 120 h): 0.57 ± 0.54 % ID/g
- Intestine uptake (5.0 nmol/mouse, 120 h): 0.50 ± 0.35 % ID/g
- Kidneys uptake (5.0 nmol/mouse, 120 h): 1.90 ± 0.75 % ID/g
- Liver uptake (5.0 nmol/mouse, 120 h): 2.66 ± 0.28 % ID/g
- Lungs uptake (5.0 nmol/mouse, 120 h): 0.81 ± 0.44 % ID/g
- Spleen uptake (5.0 nmol/mouse, 120 h): 2.07 ± 1.24 % ID/g
- Stomach uptake (5.0 nmol/mouse, 120 h): 0.44 ± 0.26 % ID/g
- Tumor uptake (5.0 nmol/mouse, 120 h): 4.6 ± 0.85 % ID/g
- Blood uptake (10.0 nmol/mouse, 4 h): 25.24 ± 9.08 % ID/g
- Bone marrow uptake (10.0 nmol/mouse, 4 h): 1.56 ± 0.67 % ID/g
- Heart uptake (10.0 nmol/mouse, 4 h): 2.07 ± 0.88 % ID/g
- Intestine uptake (10.0 nmol/mouse, 4 h): 2.18 ± 1.07 % ID/g
- Kidneys uptake (10.0 nmol/mouse, 4 h): 5.74 ± 0.63 % ID/g
- Liver uptake (10.0 nmol/mouse, 4 h): 5.35 ± 0.70 % ID/g
- Lungs uptake (10.0 nmol/mouse, 4 h): 4.15 ± 0.93 % ID/g
- Spleen uptake (10.0 nmol/mouse, 4 h): 1.81 ± 0.74 % ID/g
- Stomach uptake (10.0 nmol/mouse, 4 h): 2.10 ± 0.97 % ID/g
- Tumor uptake (10.0 nmol/mouse, 4 h): 11.75 ± 1.83 % ID/g
- Tumor/Bone marrow (10.0 nmol/mouse, 4 h): 8.76 ± 3.85
- Blood uptake (10.0 nmol/mouse, 24 h): 10.26 ± 1.23 % ID/g
- Bone marrow uptake (10.0 nmol/mouse, 24 h): 2.64 ± 1.31 % ID/g
- Heart uptake (10.0 nmol/mouse, 24 h): 0.51 ± 0.18 % ID/g
- Intestine uptake (10.0 nmol/mouse, 24 h): 0.92 ± 0.18 % ID/g
- Kidneys uptake (10.0 nmol/mouse, 24 h): 5.17 ± 2.82 % ID/g
- Liver uptake (10.0 nmol/mouse, 24 h): 2.36 ± 0.28 % ID/g
- Lungs uptake (10.0 nmol/mouse, 24 h): 2.00 ± 0.51 % ID/g
- Spleen uptake (10.0 nmol/mouse, 24 h): 2.33 ± 1.42 % ID/g
- Stomach uptake (10.0 nmol/mouse, 24 h): 0.78 ± 0.29 % ID/g
- Tumor uptake (10.0 nmol/mouse, 24 h): 9.32 ± 4.94 % ID/g
- Tumor/Blood (10.0 nmol/mouse, 24 h): 0.89 ± 0.16
- Tumor/Bone marrow (10.0 nmol/mouse, 24 h): 4.22 ± 2.0
- Tumor/Kidneys (10.0 nmol/mouse, 24 h): 2.10 ± 0.95
- Blood uptake (10.0 nmol/mouse, 120 h): 0.90 ± 0.14 % ID/g
- Bone marrow uptake (10.0 nmol/mouse, 120 h): 0.88 ± 0.14 % ID/g
- Heart uptake (10.0 nmol/mouse, 120 h): 1.10 ± 1.33 % ID/g
- Intestine uptake (10.0 nmol/mouse, 120 h): 0.65 ± 0.10 % ID/g
- Kidneys uptake (10.0 nmol/mouse, 120 h): 2.71 ± 1.54 % ID/g
- Liver uptake (10.0 nmol/mouse, 120 h): 4.08 ± 1.71 % ID/g
- Lungs uptake (10.0 nmol/mouse, 120 h): 0.76 ± 0.13 % ID/g
- Spleen uptake (10.0 nmol/mouse, 120 h): 3.85 ± 0.88 % ID/g
- Stomach uptake (10.0 nmol/mouse, 120 h): 0.75 ± 0.49 % ID/g
- Tumor uptake (10.0 nmol/mouse, 120 h): 4.94 ± 0.70 % ID/g
- tumor targeting / off-target concentrations (Tables 1-8, FIG. 35 (summary)): targeted the tumors, with minimal off-target concentrations
